Measured properties of organic chemicals

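The OPERA project collected these measurements from public sources as training and test data for property models. A listed value is a point estimate from one report or more. Method and conditions are not stated for these values. Where a salt, mixture or single isomer is drawn, the source does not say that exactly this form was tested. Some upstream entries may be estimates or bounds without being marked so.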

The melting point is given in degrees Celsius.
Boiling points are in °C, nominally at 760 mmHg.
The octanol-water partition coefficient is given as log10; larger values mean a more lipophilic compound.
Solubility in water is on a log10 molar scale (set defined at 25 °C).
Vapor pressure is log10 of mmHg; the set covers 15 to 30 °C, mostly 20 to 25 °C.
The Henry's law constant is on a log10 scale in atm·m3/mol (set defined at 25 °C); higher favours air over water.
fu is the fraction unbound in human plasma, from 0 to 1.
Intrinsic clearance (human, µL/min per 10^6 hepatocytes): higher is faster turnover, and 0 stands for none detected.

NC1CC1c1ccc(F)c(F)c1.O=C(O)C(O)c1ccccc1 (stereo unspecified) is reported with melting point 178.7 °C and log vapor pressure -6.046 (log10 mmHg). C=CCOCC1CO1 (stereo unspecified) is reported with logP 0.45 and log vapor pressure 0.614 (log10 mmHg). C=CC(=O)OCCCCOC(=O)C=C is reported with logP 1.9 and log vapor pressure -2.36 (log10 mmHg). For CCCCN(CCCC)SN(C)C(=O)Oc1cccc2c1OC(C)(C)C2 the data give Henry's law constant -5.912 (log10 atm·m3/mol) and Clint 26.74 µL/min/10^6 cells.

O=C(O)C(F)(F)OC1(F)OC(F)(F)OC1(F)OC(F)(F)F (stereo unspecified) has BP 169 °C and log vapor pressure -0.815 (log10 mmHg). For CN(C)c1ccc(C(=O)c2ccc(N(C)C)cc2)cc1 the data give fu 0.00959 and Clint 39.2 µL/min/10^6 cells. Listed for O=S(=O)([N-]S(=O)(=O)C(F)(F)F)C(F)(F)F.[Li+]: logP -1.325 and log vapor pressure -7.108 (log10 mmHg). The entry for CCC(C)C1(CC)C(=O)NC(=O)NC1=O (stereo unspecified) lists log solubility -2.232 (log10 mol/L) and fu 0.74.

CN(C)C(=S)SSC(=S)N(C)C is reported with log solubility -3.987 (log10 mol/L) and Clint 816 µL/min/10^6 cells. CCN=C=NCCCN(C)C.Cl has logP -2.98 and log vapor pressure -4.736 (log10 mmHg). Listed for CN1CC[C@]23c4c5ccc(OCCN6CCOCC6)c4O[C@H]2[C@@H](O)C=C[C@H]3[C@H]1C5: BP 577.8 °C and fu 0.76. The entry for CC(C)CC(C)N (stereo unspecified) lists logP 1.2 and log solubility -4.108 (log10 mol/L).

Listed for Oc1c(Br)cc(Br)cc1Br: log solubility -3.749 (log10 mol/L) and log vapor pressure -3.414 (log10 mmHg). The entry for C1CCC(NC2CCCCC2)CC1.CC(C)(F)C[C@H](N[C@@H](c1ccc(-c2ccc(S(C)(=O)=O)cc2)cc1)C(F)(F)F)C(=O)O lists melting point 208 °C and logP 0.945 and log solubility -3.506 (log10 mol/L) and log vapor pressure -4.655 (log10 mmHg). The entry for CC(C)C[C@H]1C(=O)N2CCC[C@H]2[C@]2(O)O[C@](NC(=O)[C@@H]3C=C4c5cccc6[nH]c(Br)c(c56)C[C@H]4N(C)C3)(C(C)C)C(=O)N12 lists logP 3.5 and log solubility -3.882 (log10 mol/L) and Clint 81.15 µL/min/10^6 cells. The entry for CC(C)(OO)c1ccccc1 lists BP 140.1 °C and logP 1.88.

Listed for CCCCCCCC1(CC)C(=O)NC(=O)NC1=O: melting point 118 °C and log solubility -3.219 (log10 mol/L). CCCCCCCCCCCCC1=C(OC(C)=O)C(=O)c2ccccc2C1=O has log solubility -7.74 (log10 mol/L) and log vapor pressure -7.896 (log10 mmHg). Listed for CC12CCC(CC1)C(C)(C)[N+]([O-])=[N+]2[O-]: melting point 136 °C and logP -1.258 and log vapor pressure 0.785 (log10 mmHg). The entry for O=C(C(Cl)(Cl)Cl)C(Cl)(Cl)Cl lists logP 2.59 and log vapor pressure -0.775 (log10 mmHg).

The entry for CCOP(Oc1c(C)cc(C(C)(C)C)cc1C(C)(C)C)Oc1c(C)cc(C(C)(C)C)cc1C(C)(C)C lists melting point 90 °C and log solubility -7.4 (log10 mol/L) and log vapor pressure -7.347 (log10 mmHg). The entry for N#Cc1cc(Br)c(O)c(Br)c1 lists logP 2.75 and Clint 7.87 µL/min/10^6 cells. The entry for CCOP(=S)(OCC)OP(=S)(OCC)OCC lists Henry's law constant -5.353 (log10 atm·m3/mol) and fu 0.0206 and Clint 101 µL/min/10^6 cells. Cc1cc(Cc2cc(C)c(OCC3CO3)c(C)c2)cc(C)c1OCC1CO1 (stereo unspecified) has melting point 60.85 °C and logP 4.17 and log solubility -5.704 (log10 mol/L).

COc1c(C(C)(C)C)cc([N+](=O)[O-])c(C)c1[N+](=O)[O-] is reported with logP 4 and log solubility -5.531 (log10 mol/L).

The first 3 entries again:

Listed for NC1CC1c1ccc(F)c(F)c1.O=C(O)C(O)c1ccccc1 (stereo unspecified): melting point 178.7 °C and log vapor pressure -6.046 (log10 mmHg).
Listed for C=CCOCC1CO1 (stereo unspecified): logP 0.45 and log vapor pressure 0.614 (log10 mmHg).
Listed for C=CC(=O)OCCCCOC(=O)C=C: logP 1.9 and log vapor pressure -2.36 (log10 mmHg).

Source: data files of OPERA 2.9 (Mansouri et al.), github.com/kmansouri/OPERA.